According to PubChem BioAssay AID593 (National Center for Advancing Translational Sciences (NCATS), 2007):
Where “and” joins values, the source holds several entries; their conditions need not be identical. Equal values may be shown once. The campaign covered roughly 59,000 compounds. About 540 (0.92%) were called active. All entries are inconclusive by the source's own rule. Clear calls are listed elsewhere. No stated cut-off is given here; in the data, active means max fluorescein-equivalent concentration above about 10 nM; inconclusive means between about 1.1 nM and that limit; inactive means weaker than that.

Test: qHTS Assay for Spectroscopic Profiling in Fluorescein Spectral Region
Details: Compound autofluorescence, 480/540 nm, stronger effect = higher value
Excerpt: NIH Molecular Libraries Screening Centers Network [MLSCN]
NIH Chemical Genomics Center [NCGC]
Occasionally, the artifactual effect may originate from the compound's own spectral or other biophysical properties which generally tend to track its assay concentration. Pre-screening/profiling the library with respect to the compounds' spectral properties should help one exclude false positives early on. While the most informative fluorescent profiling data set is obtained by performing a full excitation and emission scan of each well by using a monochromator-based plate reader, such an approach is practical only on a very limited scale as scanning each well requires long time. An alternative approach, applied here, is to perform plate reader scans using selected excitation and emission wavelength pairs to generate a multidimensional relational database that correlates compound concentration and the respective relative fluorescence intensity at a given wavelength set. A standard curve of fluorescein present on each plate as six-point concentration series, was used to compute a normalized fluorescence response, termed dye-equivalent concentration, for each compound at each concentration.
NCGC Assay Protocol Summary:
100 mM Tris buffer, pH 8.0
The wells in columns 1 through 4 of a Kalypsys polypropylene 1536-well compound plate were filled with standard solutions of fluorophore corresponding to the spectral region of interest. Solutions of Fluorescein were placed in the following wells: Q1, R1: 3 mM, Q2, R2: 300 uM, Q3, R3: 30 uM, Q4, R4: zero (DMSO), S1, T1: 3 uM, S2, T2: 900 nM, S3, T3: 300 nM, S4, T4: zero (DMSO).
Six uL of buffer were dispensed to 1536-well Greiner black plates. Compounds and dye standards (23 nL) were transferred via Kalypsys PinTool. The plates were incubated for 15 min at room temperature, and then read on ViewLux (Perkin-Elmer) High-throughput CCD imager using 480 nm and 540 nm excitation and emission filter set.
Keywords: NIH Roadmap, MLSCN, MLI, MLSMR, qHTS, NCGC, Fluorescein, Fluorescent Profiling.

SMILES	max fluorescein-equivalent concentration
O=P(Nc1nccs1)(c1ccccc1)c1ccccc1	inconclusive: 1.1e-09 M
CN1CCC[C@H](OC(=O)C(c2ccccc2)c2ccccc2)C1	inconclusive: 1.4e-09 M
O=[N+]([O-])c1ccc(C[As](=O)(O)O)cc1	inconclusive: 1.9e-09 M
NCC[C@@H](N)CSP(=O)(O)O	inconclusive: 2e-09 M
[N-]=[N+]=NCC(O)CN=[N+]=[N-] (stereo not drawn)	inconclusive: 1.7e-09 M
CN(C(=O)Cc1ccccc1)[C@@H]1CC[C@@]2(CCCO2)C[C@H]1N1CCCC1	inconclusive: 3.5e-09 M
COP1(=S)c2c(C)nn(CCC#N)c2N=C(c2ccc(F)cc2)N1C (stereo not drawn)	inconclusive: 2.4e-09 M
[N-]=[N+]=NCC(N)=O	inconclusive: 1.7e-09 M
NC(=O)Nc1cc([As](=O)(O)O)cc(I)c1O	inconclusive: 1.2e-09 M
O=C(OC1CN2CCC1CC2)C12CC3CC(CC(C3)C1)C2 (stereo not drawn)	inconclusive: 1.3e-09 M
Cc1cccc(OCC(=O)OC2CN3CCC2CC3)c1 (stereo not drawn)	inconclusive: 1.3e-09 M
CN(C(=O)Cc1ccc(Cl)c(Cl)c1)[C@@H]1CC[C@@]2(CCCO2)C[C@H]1N1CCCC1	inconclusive: 1.5e-09 M
CCOP1(=S)c2c(C)nn(CCC#N)c2N=C(c2ccccc2F)N1C (stereo not drawn)	inconclusive: 1.2e-09 M
CCOP1(=S)c2c(C)nn(CCC#N)c2N=C(c2ccc(F)cc2)N1C (stereo not drawn)	inconclusive: 2e-09 M
Cc1nn(-c2ccccc2)c2c1P(=O)(N1CCOCC1)N(C)C(c1ccccc1)=N2 (stereo not drawn)	inconclusive: 2.1e-09 M
O=P1(Nc2ccc(Br)cn2)COc2ccccc2OC1	inconclusive: 1.5e-09 M
O=P1(Nc2ccccn2)COc2ccccc2OC1	inconclusive: 2.2e-09 M
CN(C(=O)Cc1ccc(Cl)c(Cl)c1)[C@@H]1CCCC[C@H]1N1CCCC1	inconclusive: 1.3e-09 M and inconclusive: 1.1e-09 M and inconclusive: 2.1e-09 M
